Values quoted from earlier work, collected in US20060275250A1, “Reactive polymers and copolymers, method of their preparation and their use” (priority 2003, published 2006).

Conditions: clinical testing; cited from earlier work

Substance: N-(2-hydroxypropyl)methacrylamide copolymer doxorubicin [PK1]
- MTD relative to clinically used dose of free doxorubicin (60-80 mg/m^2): four-five times more
- maximum tolerated dose (MTD): 320 mg/m^2
